Data taken from publication PMC8128076 (RSC Medicinal Chemistry, 2021).

Molecular target: mTOR (Homo sapiens, UniProt P42345)
Assay: LanthaScreen TR-FRET displacement binding assay, mTOR
Settings: mTOR over PI3Kα

## C[C@@H]1COCCN1c1nc(-c2cnc(N)cc2C(F)F)nc2c1C[C@@H]1COCCN21 [Compound 7]
  SI (selectivity index), Ki(PI3Kα)/Ki(mTOR): < 20

## C[C@@H]1COCCN1c1nc(-c2cnc(N)c(C(F)(F)F)c2)nc2c1C[C@@H]1COCCN21 [Compound 11]
  SI (selectivity index), Ki(PI3Kα)/Ki(mTOR): >600
